Reference: ChEMBL document CHEMBL5543102, “Allosteric Activation of α7 Nicotinic Acetylcholine Receptors by Novel 2-Arylamino-thiazole-5-carboxylic Acid Amide Derivatives for the Improvement of Cognitive Deficits in Mice” (J Med Chem, 2024)
Activity calls are given as the source filed them. The rule behind the calls is not given here.

Amino acid sequences for entries named in this document (tags omitted). A change or cut given only in a name is not applied to a line headed by its entry.
UniProt P04757: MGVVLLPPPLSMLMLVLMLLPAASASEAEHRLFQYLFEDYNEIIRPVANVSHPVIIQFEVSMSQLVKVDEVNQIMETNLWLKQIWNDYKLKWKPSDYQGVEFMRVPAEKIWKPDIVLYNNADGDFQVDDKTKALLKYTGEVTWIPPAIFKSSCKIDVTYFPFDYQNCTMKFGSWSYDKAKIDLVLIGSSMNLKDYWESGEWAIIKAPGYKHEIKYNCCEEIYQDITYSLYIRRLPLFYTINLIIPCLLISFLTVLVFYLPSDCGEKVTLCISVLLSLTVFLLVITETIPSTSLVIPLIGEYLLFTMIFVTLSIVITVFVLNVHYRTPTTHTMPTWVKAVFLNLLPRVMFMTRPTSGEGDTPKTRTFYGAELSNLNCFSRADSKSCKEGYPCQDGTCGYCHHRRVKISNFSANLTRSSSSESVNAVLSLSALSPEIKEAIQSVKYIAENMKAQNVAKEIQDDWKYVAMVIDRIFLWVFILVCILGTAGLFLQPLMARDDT
UniProt P12392: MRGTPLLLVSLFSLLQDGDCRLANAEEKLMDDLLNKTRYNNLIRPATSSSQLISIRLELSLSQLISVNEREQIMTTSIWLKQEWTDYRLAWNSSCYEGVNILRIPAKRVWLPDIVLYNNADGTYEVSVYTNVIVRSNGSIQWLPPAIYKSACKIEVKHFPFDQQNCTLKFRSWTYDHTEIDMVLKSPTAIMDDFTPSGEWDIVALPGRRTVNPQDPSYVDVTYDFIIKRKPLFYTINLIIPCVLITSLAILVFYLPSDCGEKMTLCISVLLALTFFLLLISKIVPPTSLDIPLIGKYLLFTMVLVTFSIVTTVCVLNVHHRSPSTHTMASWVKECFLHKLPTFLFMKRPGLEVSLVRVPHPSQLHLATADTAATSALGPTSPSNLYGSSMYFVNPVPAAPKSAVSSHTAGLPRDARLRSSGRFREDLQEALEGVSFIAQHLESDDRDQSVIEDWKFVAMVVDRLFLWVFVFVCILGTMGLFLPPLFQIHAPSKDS
UniProt P09483: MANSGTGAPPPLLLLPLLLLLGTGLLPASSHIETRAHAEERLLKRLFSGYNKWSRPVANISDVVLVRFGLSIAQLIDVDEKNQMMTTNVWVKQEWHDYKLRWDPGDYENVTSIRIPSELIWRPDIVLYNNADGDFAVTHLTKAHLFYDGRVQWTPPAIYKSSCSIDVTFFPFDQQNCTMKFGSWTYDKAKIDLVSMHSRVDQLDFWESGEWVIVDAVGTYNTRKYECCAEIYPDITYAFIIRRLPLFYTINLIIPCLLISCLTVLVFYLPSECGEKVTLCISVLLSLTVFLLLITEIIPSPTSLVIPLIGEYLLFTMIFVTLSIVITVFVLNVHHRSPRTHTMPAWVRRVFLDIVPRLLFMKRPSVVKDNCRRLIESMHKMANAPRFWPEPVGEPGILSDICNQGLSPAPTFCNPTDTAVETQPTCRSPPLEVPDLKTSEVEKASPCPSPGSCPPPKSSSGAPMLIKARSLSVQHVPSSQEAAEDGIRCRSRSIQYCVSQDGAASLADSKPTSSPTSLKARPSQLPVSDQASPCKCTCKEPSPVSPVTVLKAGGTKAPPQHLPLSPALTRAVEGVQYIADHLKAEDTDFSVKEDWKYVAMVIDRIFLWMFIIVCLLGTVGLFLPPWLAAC
UniProt P12390: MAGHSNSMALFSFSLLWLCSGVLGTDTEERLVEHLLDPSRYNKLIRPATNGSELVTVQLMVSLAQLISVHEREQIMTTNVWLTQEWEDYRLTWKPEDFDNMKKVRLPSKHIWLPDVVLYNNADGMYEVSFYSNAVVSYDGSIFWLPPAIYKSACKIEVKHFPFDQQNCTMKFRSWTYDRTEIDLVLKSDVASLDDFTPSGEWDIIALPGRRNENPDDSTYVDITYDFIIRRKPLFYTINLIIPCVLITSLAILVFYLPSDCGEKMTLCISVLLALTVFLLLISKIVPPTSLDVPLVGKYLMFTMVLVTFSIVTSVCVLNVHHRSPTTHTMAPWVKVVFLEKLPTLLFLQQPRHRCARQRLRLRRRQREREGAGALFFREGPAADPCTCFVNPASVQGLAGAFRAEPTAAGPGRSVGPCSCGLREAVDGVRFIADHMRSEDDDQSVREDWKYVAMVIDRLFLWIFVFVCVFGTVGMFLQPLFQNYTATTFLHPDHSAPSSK

What was measured:
[1] = biological target: Neuronal acetylcholine receptor; alpha3/beta4 (Rattus norvegicus) (UniProt P04757+P12392); experiment: Positive allosteric modulation of rat alpha3beta4 nAChR expressed in xenopus laevis oocytes assessed as increase in acetylcholine induced channel current amplitude at 10 uM at -90 mV holding potential measured after 24 to 72 hrs by two-electrode voltage clamp recording method; format: cell-based; conditions: Oocyte, time 24-72 hrs
[2] = biological target: Neuronal acetylcholine receptor; alpha4/beta2 (Rattus norvegicus) (UniProt P09483+P12390); experiment: Positive allosteric modulation of rat alpha4beta2 nAChR expressed in xenopus laevis oocytes assessed as increase in acetylcholine induced channel current amplitude at 10 uM at -90 mV holding potential measured after 24 to 72 hrs by two-electrode voltage clamp recording method; format: cell-based; conditions: Oocyte, time 24-72 hrs

Activity [1]: inactive
Activity [2]: inactive
Compound: Cc1cccc(Cl)c1NC(=O)c1sc(Nc2ccc(F)c(Cl)c2)nc1N
